By UniProt entry, the sequences of proteins in these tests, tags left out. Residues count along the entry.
UniProt P62575, 319-822 limits assumed: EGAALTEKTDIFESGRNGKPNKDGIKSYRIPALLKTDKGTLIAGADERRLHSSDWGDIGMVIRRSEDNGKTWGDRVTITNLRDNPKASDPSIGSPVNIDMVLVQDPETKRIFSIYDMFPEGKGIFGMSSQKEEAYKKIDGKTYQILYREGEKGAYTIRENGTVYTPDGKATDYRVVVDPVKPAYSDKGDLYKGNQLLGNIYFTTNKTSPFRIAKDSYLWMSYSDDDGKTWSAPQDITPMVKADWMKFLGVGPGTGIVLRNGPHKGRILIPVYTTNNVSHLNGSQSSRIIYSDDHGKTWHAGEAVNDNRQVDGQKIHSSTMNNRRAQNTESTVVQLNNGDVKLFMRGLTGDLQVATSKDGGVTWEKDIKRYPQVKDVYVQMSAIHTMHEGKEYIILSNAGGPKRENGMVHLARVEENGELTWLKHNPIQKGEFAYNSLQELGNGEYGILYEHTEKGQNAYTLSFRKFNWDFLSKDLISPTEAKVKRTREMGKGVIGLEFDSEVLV

According to publication PMC6104608, “Design, synthesis, and evaluation of curcumin analogues as potential inhibitors of bacterial sialidase” (Journal of Enzyme Inhibition and Medicinal Chemistry, 2018):

Biological target: T1, S. pneumoniae Nan A (Streptococcus pneumoniae, UniProt P62575)
T1 construct: 6x His-tag (C); made in house; host or cells: E. coli BL21 (DE3)
Experiment: Fluorescence-based inhibition assay of S. pneumoniae Nan A with MUNANA substrate
Assay type: biochemical
Settings: control used to confirm hydrolytic activity of Nan A; value printed with citation [12]; read-out: IC50 of DANA, S. pneumoniae sialidase inhibition

SMILES: CC(=O)N[C@H]1[C@H]([C@H](O)[C@H](O)CO)OC(C(=O)O)=C[C@@H]1O [DANA, reference compound]
- IC50: 4.8 ± 1.1 µM
